Measured values as given in article PMC5053593, “Tetrahydrobiopterin Supplementation: Elevation of Tissue Biopterin Levels Accompanied by a Relative Increase in Dihydrobiopterin in the Blood and the Role of Probenecid-Sensitive Uptake in Scavenging Dihydrobiopterin in the Liver and Kidney of Rats” (PLoS ONE, 2016).

Details: both, Sprague-Dawley, rat, in vivo
Description: Each blood sample was divided into three portions; one served as a “whole blood” specimen, the second was for the hematocrit determination, and the third was centrifuged (10,000 rpm, 4°C, 5 min) to separate red blood cells (RBCs) from the plasma. The whole blood, plasma, and RBCs were separately subjected to differential iodine oxidation for the BP determination described below. The results were expressed as the amount of BP per unit volume of the original blood sample (plasma + RBC, mL) based on the hematocrit value. […] However, for the brain, the BP carryover was estimated using an average blood inclusion of 1.2% (v/w), which was determined by a comparison of the heme content of the blood and brain homogenates based on light absorbance at 415 nm.
Biopterin was determined essentially according to Fukushima and Nixon and modified as described previously. […] With their method, the biopterin quantity remaining after the acid-oxidation was taken as the total biopterin (BP = “BH4” + “BH2” + “oxidized biopterin”) and that which remained after the alkaline-oxidation, as 7,8-dihydrobiopterin (BH2) plus oxidized biopterin. […] Accordingly, in this study, the biopterin amount measured after the acid iodine oxidation was taken as the sum of “BH4” and “BH2” (“BP” = “BH2” + “BH4”), and that after the alkaline oxidation, as the amount of “BH2”. […]

## C[C@H](O)[C@H](O)[C@H]1CNc2nc(N)[nH]c(=O)c2N1 [6RBH4, (6R)-L-erythro-5,6,7,8-tetrahydrobiopterin dihydrochloride]
30 min
  BH4% in liver: 98.7 ±0.1%
120 min
  BH4% in kidney: 98.6 ±0.3%

Counter-ions that a name gives are not always drawn.
